Rango-impB inh: Rango-importin beta binding inhibition. Q14974. Rango CFP/YFP FRET sensor + importin beta, 45 min. Potency, µM (top dose mostly 92.2 µM), for inactives: at the highest dose inhibition of complex formation. 340,000 compounds, 0.031% hits. AID 540263; calls by dose curve;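 further: potency means the concentration at half of the fitted maximal effect; 0% = DMSO wells and 100% = buffer wells lacking importin beta; nearly all actives have a fitted effect of over 15% in size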
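FRET biosensor (snurportin 1 IBB flanked by EYFP and cerulean), 50 nM, with compound 5 min, then 0.125 microM importin beta in PBS, 1 mM DTT, 0.02% Tween-20, 0.1% BSA. CFP/YFP ratio read after 45 min at room temperature; pre-read flags interference.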
PKM2 activator: increases activity of human pyruvate kinase M2. Potency, µM (top dose mostly 57.5 µM), inactives show at the highest dose activation, hits mostly activators. 260,000 compounds, 0.34% hits. P14618. AID 1631. purified PKM2, Kinase-Glo ATP luminescence, activation; response scale: 0% is enzyme alone, no compound; further: potency means the concentration at half of the fitted maximal effect; on the % scale 0 is the no-effect control and ±100 the full control effect; nearly all actives have a fitted effect of over 55% in size
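ATP formation by purified human PK-M2, quantified via coupled luciferase luminescence after 1 h at room temperature with 0.1 mM ADP and 0.5 mM PEP final.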
Rango dissoc inh: inhibition of RanGTP-driven Rango-importin beta dissociation; Biochemical FRET Rango-importin beta, RanGTP-induced dissociation; 340,000 compounds, 0.071% hits; Potency, µM (series often up to 46.1 µM), inactives show at the highest dose activity change, negative = inhibition; O95149+P62826; AID 540253; calls by dose curve; further: potency means the concentration at half of the fitted maximal effect; % of control where 0% means no effect; nearly all actives have a fitted effect of over 45% in size
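Rango FRET biosensor (snurportin-1 IBB flanked by N-terminal EYFP and C-terminal CFP10) at 0.1 uM, with 0.25 uM importin beta in PBS, 1mM DTT, 0.02% Tween-20, 0.1% BSA. 0.6 uM Ran, 2mM GTP and 0.2 uM RCC1 were then added for 45 min at room temperature. Inhibition read as loss of FRET rise.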
IL-2 act: IL-2 activation; IL-2 activation reporter assay, cell-based qHTS; stimulated with anti-CD3/CD4/CD28 beads; in transgenic mouse T cells; activation, % (series mostly up to about 46 µM); 360,000 compounds, 0.065% hits; in the data active means activation above about 50%; inconclusive means mostly about 30% to 49%; further: 0% is about no effect
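Readout: EGFP and DsRed signals by fluorescent plate cytometry. Unstimulated transgenic mouse T cells received compound 60 min before antibody-bead stimulation, then incubated 18 h at 37 degrees C.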
A-T KAP1 phos: candidate therapy for ataxia-telangiectasia. F2112 A-T fibroblasts, KAP-1 phosphorylation AlphaLISA; neocarzinostatin DNA damage 30 min before lysis. 320,000 compounds, 0.19% hits. Potency, µM (titrated, usually from 57.5 µM), for inactives: top-dose activation, hits mostly activators; further: potency means the concentration at half of the fitted maximal effect; % of control where 0% means no effect; nearly all actives have a fitted effect of over 45% in size
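ATM-like activity read as KAP-1 phosphorylation via AlphaLISA donor/acceptor antibody pairs after lysis and 6 hr at 25C. Cells were ATM-null patient fibroblasts (F2112, hTERT), dosed 60 min, then exposed to the DSB inducer NCS for 30 min.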
* hit, by the source's call; ? = inconclusive; / = not tested or not shown; [ ] = dose if it differs, or a comment. The list is not random: actives were taken first. Their share in the collection is about 0.59%. Unless noted, the call rests on the fitted dose curve; in most records, active means well fitted activation curve with a large enough effect; inconclusive means small, poorly fitted or top-dose-only effect; inactive means no such curve, though single readings can be large or run the other way.

Short forms – A = Rango-impB inh; B = PKM2 activator; C = Rango dissoc inh; D = IL-2 act; E = A-T KAP1 phos
Structure: COc1cc(OC)c(C(=O)c2ccccc2[N+](=O)[O-])c(OC)c1
  A: /; B: /; C: /; D: -1; E: /

Structure: CC(C)OP(=O)(OC(C)C)C(O)c1ccc(N(C)C)cc1 (stereo unspecified)
  A: -3%; B: 2%; C: -9%; D: 1; E: 5µM*

Structure: CC(C)OP(=O)(c1ccc(N(C)C)cc1)C(O)c1ccc(C(C)C)cc1 (stereo unspecified)
  A: 1%; B: /; C: -9%; D: -2; E: -9%

Structure: CCOc1ccc(NC(=O)C(Cc2ccccc2)NC(=O)C2CCCCC2)cc1 (stereo unspecified)
  A: -5%; B: 8%; C: -12%; D: 0; E: 4%

Structure: Nc1nnc(SCC(=O)c2ccc3c(c2)NC(=O)CO3)s1
  A: 2%; B: 28µM*; C: 1%; D: 2; E: -2%

Structure: CCOC(=O)c1c(-c2cccs2)csc1NC(=O)COC(=O)c1c(C)noc1C
  A: 0%; B: 14µM*; C: 0%; D: -2; E: 4%

Structure: COc1ccc(C(=O)/C=C/C(=O)N(CC(=O)NCCC(C)C)Cc2cccs2)c(O)c1
  A: 3%; B: 22µM*; C: 9%; D: -1; E: 8%

Structure: COc1ccc(C(=O)/C=C/C(=O)N(CC(=O)NC2CCCCC2)Cc2ccc(F)cc2)c(O)c1
  A: 5%; B: 7.9µM*; C: 17%; D: -1; E: -5%

Structure: CSc1ncnc2[nH]ccc12
  A: 0%; B: /; C: 18%; D: 1; E: /

Structure: CC(=O)c1ccc(NC(=S)NC(=O)/C=C/c2ccc(F)cc2)cc1
  A: ?; B: /; C: -9%; D: 1; E: 3.2µM*

Structure: O=C(N=c1ccn(-c2nc3ccccc3nc2NS(=O)(=O)c2ccc(Cl)cc2)cc1)c1cccs1
  A: ?; B: -1%; C: ?; D: 244*; E: 1%

Structure: CCOc1ccc(S(=O)(=O)Nc2nc3ccccc3nc2-n2ccc(=NC(=O)c3cccs3)cc2)cc1
  A: ?; B: 5%; C: -23%; D: ?; E: -7%

Structure: Cn1c(Cn2cnc(Cl)c2Cl)nc2ccccc21
  A: 2%; B: 25µM*; C: -9%; D: -1; E: 3%

Structure: COCCSc1nnc(NC(=O)COc2ccc3c(c2)OCO3)s1
  A: 0%; B: -6%; C: 12%; D: 0; E: -7%

Structure: CC(=O)Nc1ccccc1NS(=O)(=O)c1ccccc1[N+](=O)[O-]
  A: 0%; B: 40µM*; C: -4%; D: 0; E: 5%

Three of the entries above in order of their number in Rango-impB inh, rising.
smiles	Rango-impB inh
CC(C)OP(=O)(OC(C)C)C(O)c1ccc(N(C)C)cc1 (stereo unspecified)	-3%
COCCSc1nnc(NC(=O)COc2ccc3c(c2)OCO3)s1	0%
COc1ccc(C(=O)/C=C/C(=O)N(CC(=O)NCCC(C)C)Cc2cccs2)c(O)c1	3%

Back to the main list; the 2 compounds before the break are reprinted first.
Short forms – A = Rango-impB inh; B = PKM2 activator; C = Rango dissoc inh; D = IL-2 act; E = A-T KAP1 phos
Structure: COCCSc1nnc(NC(=O)COc2ccc3c(c2)OCO3)s1
  A: 0%; B: -6%; C: 12%; D: 0; E: -7%

Structure: CC(=O)Nc1ccccc1NS(=O)(=O)c1ccccc1[N+](=O)[O-]
  A: 0%; B: 40µM*; C: -4%; D: 0; E: 5%

Structure: COc1cccc(OCCCn2ccnc2)c1
  A: 4%; B: 8%[11.5 µM]; C: 13%; D: -1; E: 3%

Structure: COc1ccc(OCCCn2ccnc2)cc1
  A: 4%; B: /; C: -5%; D: 0; E: 3.2µM*

Structure: O=C(O)c1cc(-c2ccc(Cl)c(Cl)c2)n(-c2ccccc2)n1
  A: 0%; B: /; C: -3%; D: 0; E: -17%

Structure: COC(=O)CCN(C1CCCCC1)S(=O)(=O)c1ccc(S(=O)(=O)N2CCCCC2)cc1
  A: 0%; B: 28µM*; C: -10%; D: -2; E: -8%

Structure: OC(COc1ccccc1F)CN1CCC(Cc2ccccc2)CC1 (stereo unspecified)
  A: -4%; B: 2%[11.5 µM]; C: 1%; D: 0; E: -3%

Structure: OC(COc1ccc(F)cc1Cl)CN1CCC(Cc2ccccc2)CC1 (stereo unspecified)
  A: 0%; B: /; C: 0%; D: 4; E: 3.5µM*

Structure: CC1CCCCN1CCNC(=O)c1ccc2c(c1)N(Cc1ccccc1F)C(=O)c1ccccc1S2=O (stereo unspecified)
  A: -3%; B: 4%; C: -3%; D: -1; E: -7%

Structure: COC(=O)CSC1=C(C#N)C(c2ccccc2F)CC(=O)N1 (stereo unspecified)
  A: -16%; B: 28µM*; C: -3%; D: 1; E: -16%

Structure: O=C1C=CC(=O)N1CCNc1ncc(C(F)(F)F)cc1Cl
  A: 3%; B: 18µM*; C: 15%; D: -4; E: -6%

Structure: O=C1C2C3C=CC(C3)C2S(=O)(=O)C2C3C=CC(C3)C12 (stereo unspecified)
  A: /; B: /; C: /; D: -2; E: /

Structure: N#Cc1ccc(NCCc2ccccn2)c([N+](=O)[O-])c1
  A: 0%; B: 14µM*; C: -2%; D: 0; E: 0%

Structure: O=[N+]([O-])c1cc(Cl)ccc1NCCc1ccccn1
  A: -4%; B: ?; C: 18%; D: 0; E: -6%

Structure: N#C/C(=C\c1ccc[nH]1)C(=O)Nc1ccccc1F
  A: -1%; B: -1%; C: 6%; D: -2; E: 7%

Structure: N#C/C(=C\c1ccc[nH]1)C(=O)Nc1ccccc1Cl
  A: 16µM*; B: /; C: 1%; D: -4; E: 6%

Structure: CCOc1ccc(N(CC(=O)N2CCOCC2)S(=O)(=O)c2ccc(SC)cc2)cc1
  A: 0%; B: 0%; C: 31%; D: 0; E: 2%

The results go on:
Short forms – A = Rango-impB inh; B = PKM2 activator; C = Rango dissoc inh; D = IL-2 act; E = A-T KAP1 phos
Structure: COc1ccc(NC(=O)CSC2=C(C#N)C(c3ccco3)C3=C(CCCC3=O)N2)c(OC)c1 (stereo unspecified)
  A: ?; B: 18%; C: -4%; D: -2; E: -5%

Structure: COc1cccc(NC(=O)CSC2=C(C#N)C(c3ccco3)C3=C(CCCC3=O)N2)c1 (stereo unspecified)
  A: 2%; B: 0.79µM*; C: 1%; D: -1; E: -4%

Structure: N#Cc1cc(-c2ccccc2)nc(NN)n1
  A: 2%; B: 11%; C: 0%; D: -1; E: -11%

Structure: N#Cc1cc(-c2ccccc2)nc(N2CCNCC2)n1
  A: 0%; B: -2%; C: -20%; D: 0; E: 32µM*

Structure: CC(C)(C)c1ccc(C(=O)c2c[nH]c(C(=O)O)c2)cc1
  A: 3%; B: 32µM*; C: 1%; D: -1; E: -2%

Structure: COC(=O)c1cc(C(=O)c2ccc(C(C)(C)C)cc2)c[nH]1
  A: 6%; B: 1%; C: 2%; D: -4; E: 0%

Structure: CC(C)(O)c1cc2ccc(C#CCCN3C(=O)c4ccccc4C3=O)cc2c(=O)o1
  A: -1%; B: /; C: 7%; D: 0; E: -4%

Structure: COc1ccc(C2=NN(c3ccc(C(=O)O)cc3)C(c3ccc(OC)c(OC)c3)C2)cc1 (stereo unspecified)
  A: ?; B: /; C: ?; D: 0; E: 28µM*

Structure: COc1ccc(C2CC(c3ccccc3)=NN2c2ccc(N)cc2)cc1 (stereo unspecified)
  A: ?; B: 2%; C: ?; D: 2; E: 2%

Structure: CCC(=O)Nc1cccc(C2=NN(c3ccccc3)C(c3ccc(OC)cc3)C2)c1 (stereo unspecified)
  A: ?; B: /; C: ?; D: 0; E: 22µM*

Structure: CC(=O)Oc1ccc(C2=NN(c3ccccc3)C(c3ccccc3)C2)cc1 (stereo unspecified)
  A: 1%; B: /; C: -6%; D: 1; E: 35µM*

Structure: COc1ccc(C2CC(c3ccccc3)=NN2c2ccc(S(N)(=O)=O)cc2)cc1OC (stereo unspecified)
  A: ?; B: -10%; C: -17%; D: -3; E: 29%

Structure: Cc1nn(CC(=O)NC2CCS(=O)(=O)C2)c(C)c1[N+](=O)[O-] (stereo unspecified)
  A: 0%; B: /; C: 3%; D: 0; E: -7%

Structure: CCCCC(=O)NC(=S)Nc1cccc(Cl)c1N1CCCCC1
  A: -4%; B: 1%; C: ?; D: 13; E: ?

Structure: CCC(=O)NC(=S)Nc1cccc(Cl)c1N1CCCCC1
  A: -5%; B: -3%; C: ?; D: -4; E: 35µM*

Structure: CCCC(=O)NC(=S)Nc1cccc(Cl)c1N1CCCCC1
  A: 0%; B: 0%; C: 10%; D: -2; E: 28µM*

Structure: CN(C)S(=O)(=O)c1ccc(C(=O)NCc2cccs2)cc1
  A: -1%; B: 6.3µM*; C: -16%; D: -2; E: /

Screening results deposited in PubChem by National Center for Advancing Translational Sciences (NCATS).
